As usually defined, the IC50 is the concentration needed to halve the response being measured. Usually Ki stands for a measure of affinity in units of concentration, obtained from inhibition or displacement. Read a high Ki as lower affinity.

The chains behind the UniProt entries cited, without tags or fusion partners.
UniProt P42336, whole entry: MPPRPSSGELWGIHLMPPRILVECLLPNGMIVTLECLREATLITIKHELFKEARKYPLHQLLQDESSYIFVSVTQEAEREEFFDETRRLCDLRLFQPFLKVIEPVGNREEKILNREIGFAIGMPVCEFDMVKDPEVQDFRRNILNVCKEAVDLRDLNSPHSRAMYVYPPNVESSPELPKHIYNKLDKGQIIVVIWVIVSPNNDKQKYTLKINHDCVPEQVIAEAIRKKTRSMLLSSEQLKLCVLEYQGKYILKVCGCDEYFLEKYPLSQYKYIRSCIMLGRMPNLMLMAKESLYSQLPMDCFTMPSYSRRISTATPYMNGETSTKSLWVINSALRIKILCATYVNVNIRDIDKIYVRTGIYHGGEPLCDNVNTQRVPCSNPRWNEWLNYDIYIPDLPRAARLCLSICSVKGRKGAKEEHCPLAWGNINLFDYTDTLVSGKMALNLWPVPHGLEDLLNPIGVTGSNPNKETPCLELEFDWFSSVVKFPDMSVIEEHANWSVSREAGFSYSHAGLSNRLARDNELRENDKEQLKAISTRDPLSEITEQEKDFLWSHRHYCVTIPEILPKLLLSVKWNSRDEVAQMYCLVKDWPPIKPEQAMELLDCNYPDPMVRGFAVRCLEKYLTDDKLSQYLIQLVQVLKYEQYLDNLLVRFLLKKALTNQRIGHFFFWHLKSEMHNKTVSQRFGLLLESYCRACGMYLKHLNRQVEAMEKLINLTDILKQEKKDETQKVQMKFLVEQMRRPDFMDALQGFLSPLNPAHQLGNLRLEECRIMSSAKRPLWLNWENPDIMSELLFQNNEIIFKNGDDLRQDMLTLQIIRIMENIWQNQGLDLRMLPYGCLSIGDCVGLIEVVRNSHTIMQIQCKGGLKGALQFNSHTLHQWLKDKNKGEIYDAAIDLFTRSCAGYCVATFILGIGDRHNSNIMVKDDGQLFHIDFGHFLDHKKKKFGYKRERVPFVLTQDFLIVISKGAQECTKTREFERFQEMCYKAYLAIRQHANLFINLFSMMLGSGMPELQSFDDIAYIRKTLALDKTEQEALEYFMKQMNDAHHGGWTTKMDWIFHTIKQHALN

The values that follow come from US8415376B2, “Inhibitors of PI3 kinase” (Amgen Inc., priority 2008, dated 2013).

In one assay the target is T1, PI3Kα (Homo sapiens, UniProt P42336).
T1 construct: Full length p110 subunits of PI3K α, β and δ, N-terminally labeled with polyHis tag; polyHis (N); made in house; host or cells: Sf9 insect cells (baculovirus)
The assay can be described thus: In vitro PI3 kinase enzyme assay (PI3K ATP loss), alpha. To be noted: average if run more than once; read-out: ATP Loss (PBKα) IC50 μM (Avg). The format is biochemical.
On to `O=S(=O)(Nc1cc(-c2ccc3nccc(Cl)c3c2)cnc1Cl)c1ccc(F)cc1` [Example 2, N-(2-chloro-5-(4-chloro-6-quinolinyl)-3-pyridinyl)-4-fluorobenzenesulfonamide], for which the IC50 amounted to 0.0062 µM.
In the case of `COCCOc1ccnc2ccc(-c3cnc(Cl)c(NS(=O)(=O)c4ccc(F)cc4)c3)cc12` [Example 31, N-(2-chloro-5-(4-(2-methoxyethoxy)-6-quinolinyl)-3-pyridinyl)-4-fluorobenzenesulfonamide], the IC50 worked out at 0.0075 µM.
The same measure, in the same setting: the value for `COc1ncccc1-c1ccnc2ccc(-c3cnc(Cl)c(NS(=O)(=O)c4ccc(F)cc4)c3)cc12` [Example 35, N-(2-chloro-5-(4-(2-methoxy-3-pyridinyl)-6-quinolinyl)-3-pyridinyl)-4-fluorobenzenesulfonamide] was 0.0077 µM.

A further assay deals with T1, PI3Kα. The assay can be described thus: In vitro PI3K AlphaScreen assay. To be noted: average if run more than once. The format is biochemical.
In turn, `O=S(=O)(Nc1cc(-c2ccc3nccc(N4CCN(Cc5ccncc5)CC4)c3c2)cnc1Cl)c1ccc(F)cc1` [Example 89, N-(2-chloro-5-(4-(4-(4-pyridinylmethyl)-1-piperazinyl)-6-quinolinyl)-3-pyridinyl)-4-fluorobenzenesulfonamide] returned a Ki of 0.0025 µM.
`CN(C)c1ccnc2ccc(-c3cnc(Cl)c(NS(=O)(=O)c4ccc(F)cc4)c3)cc12` [Example 97, N-(2-chloro-5-(4-(dimethylamino)-6-quinolinyl)-3-pyridinyl)-4-fluorobenzenesulfonamide] came in with a Ki of 0.0086 µM.
`COCCNc1ccnc2ccc(-c3cnc(Cl)c(NS(=O)(=O)c4ccc(F)cc4)c3)cc12` [Example 98, N-(2-chloro-5-(4-((2-methoxyethyl)amino)-6-quinolinyl)-3-pyridinyl)-4-fluorobenzenesulfonamide] displayed a Ki of 0.0889 µM.
